Key:
recombinant human DHODH = recombinant human DHODH (Homo sapiens, UniProt Q02127); experiment: Enzyme reaction inhibition test (DHODH enzyme assay, DCIP quenching); conditions: read-out: Enzyme reaction inhibitory effect (IC50), DCIP absorbance 600 nm, 50 minutes
Protocol: The DHODH enzyme assay was carried out with reference to “Benjamin Bader, Wolfgang Knecht, Markus Fries, and Monika Loffler. Expression, Purification, and Characterization of Histidine-Tagged Rat and Human Flavoenzyme Dihydroorotate Dehydrogenase. Protein Expression and Purification, 1998, 13, 414-422.”
The DHODH activity was evaluated using an enzyme assay system that is coupled with an assay in which a blue coloring agent 2,6-dichlorophenol indophenol (DCIP, available from MP Biomedicals, LLC, MP150118) is quenched. […] The enzyme activity was assessed by measuring the decrease in DCIP absorbance (600 nm) for 50 minutes using an EnVision plate-reading spectrophotometer (available from PerkinElmer, Inc.). […]

Chains of the proteins cited; added tags and fusions are not shown. Residues count along the entry.
UniProt Q02127, 31-395 limits assumed: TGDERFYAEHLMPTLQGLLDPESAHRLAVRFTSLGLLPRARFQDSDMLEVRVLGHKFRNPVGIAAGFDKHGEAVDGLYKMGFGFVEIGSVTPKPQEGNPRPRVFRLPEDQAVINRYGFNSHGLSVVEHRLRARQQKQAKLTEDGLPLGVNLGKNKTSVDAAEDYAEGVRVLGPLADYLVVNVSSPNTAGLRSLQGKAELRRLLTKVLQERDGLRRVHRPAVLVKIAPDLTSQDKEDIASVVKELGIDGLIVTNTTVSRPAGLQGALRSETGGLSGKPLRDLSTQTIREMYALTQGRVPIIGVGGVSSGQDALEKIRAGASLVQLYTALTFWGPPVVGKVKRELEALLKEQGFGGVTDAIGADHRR

[1] = test system: human myeloid leukemia cell line HL60; experiment: Cell growth test (Cell Titer Glo); conditions: read-out: Cell growth inhibitory effect (GI50), HL60 cells, 3 days
Protocol: The cell growth test was carried out using the human myeloid leukemia cell line HL60 (available from ATCC, CRL-240). As a culture medium of HL60 cells, RPMI 1640 (available from FUJIFILM Wako Pure Chemical Corporation, 189-02025) supplemented with 10% fetal bovine serum (available from Thermo Fisher Scientific, Inc., 10437-028), and 1% penicillin-streptomycin (10,000 U/mL, available from Thermo Fisher Scientific, Inc., 15140-122) was used. HL60 cells were seeded on a 384-well plate (available from Corning Inc., 4588) at a cell density of 1×10^3 cells/20 μL/well. After culturing overnight, 5 μL of the test compound having a predetermined concentration was added, and 3 days later, 25 μL of Cell Titer Glo (registered trademark) Luminescent Cell Viability Assay (available from Promega Corporation, G7573) was added, and then the amount of luminescence was measured using an EnVision plate reader (available from PerkinElmer, Inc.). Since the amount of luminescence is proportional to the intracellular concentration of adenosine triphosphate (ATP), the amount of luminescence was used as an indicator of the number of viable cells. The growth inhibitory concentration for each test compound concentration was calculated by the following expression. […]

Work on `O=C(O)c1nc(C2CC2)cnc1Nc1cccc(C2CCOCC2)c1OC(F)F` yielded an IC50 (recombinant human DHODH) of less than 10 nM and a GI50 [1] of less than 100 nM.

Source: patent US12421217B2, “Pyrazine derivative or salt thereof, and use of same” (FUJIFILM Corporation, priority 2019, dated 2025)
